A word on the IC50: it is the concentration at which inhibition is half-maximal.

The chains behind the UniProt entries cited, without tags or fusion partners. Residues count along the entry.
UniProt P00746, 26-253: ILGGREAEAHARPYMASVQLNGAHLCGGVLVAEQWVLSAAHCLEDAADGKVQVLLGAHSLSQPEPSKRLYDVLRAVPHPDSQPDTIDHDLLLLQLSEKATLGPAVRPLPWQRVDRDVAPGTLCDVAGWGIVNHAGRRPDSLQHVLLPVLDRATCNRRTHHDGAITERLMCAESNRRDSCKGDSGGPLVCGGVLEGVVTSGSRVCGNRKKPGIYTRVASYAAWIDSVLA

This is an account of results in US20230126447A1, “OCULAR DRUG DEPOT FOR COMPLEMENT-MEDIATED DISORDERS” (priority 2020, published 2023).

The target in assay [1] is T1, CFD (Homo sapiens, UniProt P00746). The assay is described as follows: biochemical.
The target in assay [2] is T1, CFD. The assay is described as follows: Inhibitory effect on CFD. The class given is biochemical.

Molecules are shown by their SMILES.

With `CC(=O)c1nn(CC(=O)N2C[C@H](F)C[C@H]2C(=O)Nc2cccc(Br)n2)c2ccc(-c3cnc(C)nc3)cc12` [Compound 1, (2S,4R)-1-(2-(3-Acetyl-5-(2-methylpyrimidin-5-yl)-1H-indazol-1-yl)acetyl)-N-(6-bromopyridin-2-yl)-4-fluoropyrrolidine-2-carboxamide], the values for the half-inhibitory concentration (IC50) against CFD [1] and on CFD [2] were 25 nM and 0.54 nM, respectively.
